From US20080194701A1, “Bifunctional Enzyme with Y-Glutamylcysteine Synthetase and Glutathione Synthetase Activity and Uses Thereof” (priority 2004, published 2008)

System: NCC(=O)O
Assay: purified protein, by the assay type
Conditions: other: substrate Km, GS activity

With “E. faecalis γ-GCS-GS (Enterococcus faecalis V583)” the Km was 5.0 ± 0.5 mM.
